Columns and labels:
[1] = target: ASCT2 (Homo sapiens (Human), UniProt Q15758); assay: Inhibition of ASCT2-mediated 3H-glutamine uptake in live HEK293 (human) cells; assay type: cell-based; details: mean of at least 3 biological replicates
[2] = target: ASCT2 (Rattus norvegicus (Rat), UniProt D3ZJ25); assay: Inhibition of ASCT2-mediated glutamine uptake in C6 (rat) cells; assay type: cell-based; details: mean of at least 3 biological replicates

Chains of the proteins cited; added tags and fusions are not shown. Lines headed by an entry give the natural chain unless they say otherwise; changes in a name come on top.
UniProt Q15758: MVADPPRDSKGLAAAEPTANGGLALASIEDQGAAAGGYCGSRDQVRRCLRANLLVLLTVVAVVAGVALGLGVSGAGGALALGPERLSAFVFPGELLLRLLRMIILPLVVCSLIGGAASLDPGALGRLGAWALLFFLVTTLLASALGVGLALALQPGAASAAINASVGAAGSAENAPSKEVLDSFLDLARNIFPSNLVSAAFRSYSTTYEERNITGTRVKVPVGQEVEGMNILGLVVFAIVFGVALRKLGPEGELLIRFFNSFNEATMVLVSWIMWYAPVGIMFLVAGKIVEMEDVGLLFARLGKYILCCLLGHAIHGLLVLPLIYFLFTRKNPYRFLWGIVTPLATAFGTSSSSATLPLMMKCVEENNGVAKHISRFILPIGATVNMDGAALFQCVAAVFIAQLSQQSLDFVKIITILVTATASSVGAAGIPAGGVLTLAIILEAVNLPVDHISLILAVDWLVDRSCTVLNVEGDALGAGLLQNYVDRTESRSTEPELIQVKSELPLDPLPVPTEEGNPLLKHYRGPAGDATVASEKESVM
UniProt D3ZJ25: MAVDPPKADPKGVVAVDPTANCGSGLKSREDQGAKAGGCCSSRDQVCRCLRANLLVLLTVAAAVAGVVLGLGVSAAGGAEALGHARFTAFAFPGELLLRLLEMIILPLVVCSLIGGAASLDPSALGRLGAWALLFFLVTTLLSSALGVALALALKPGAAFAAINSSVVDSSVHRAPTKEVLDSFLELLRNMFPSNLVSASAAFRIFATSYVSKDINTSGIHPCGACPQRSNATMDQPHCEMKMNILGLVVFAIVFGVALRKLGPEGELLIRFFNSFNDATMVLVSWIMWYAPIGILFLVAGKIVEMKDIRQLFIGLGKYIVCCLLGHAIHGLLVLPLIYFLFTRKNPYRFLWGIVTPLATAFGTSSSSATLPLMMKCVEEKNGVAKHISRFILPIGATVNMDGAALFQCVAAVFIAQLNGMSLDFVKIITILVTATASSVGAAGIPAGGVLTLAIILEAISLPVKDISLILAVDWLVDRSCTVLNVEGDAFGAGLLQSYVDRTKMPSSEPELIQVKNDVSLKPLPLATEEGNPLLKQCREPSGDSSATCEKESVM

IC50 [1]: 17.6 µM | IC50 [2]: 22.5 µM
Structure (SMILES): N[C@H](CCN(Cc1ccccc1OCc1cccc(C(F)(F)F)c1)Cc1ccccc1OCc1cccc(C(F)(F)F)c1)C(=O)O [Compound 23]

Reference: patent US10793514B2, “Glutamine transport inhibitors and methods for treating cancer” (Vanderbilt University, priority 2016, dated 2020)
